Literature values as cited in patent US20220125837A1, “METHODS FOR CONTROLLED ELIMINATION OF THERAPEUTIC CELLS” (Bellicum Pharmaceuticals, Inc., priority 2014, published 2022).

Amino acid sequences for entries named in this document (tags omitted). A change or cut given only in a name is not applied to a line headed by its entry.
UniProt P62942: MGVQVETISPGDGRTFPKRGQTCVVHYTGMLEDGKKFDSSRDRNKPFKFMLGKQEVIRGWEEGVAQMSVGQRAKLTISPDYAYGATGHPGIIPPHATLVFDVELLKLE

Assays:
[1] = molecular target: wt FRB (K2095 T2098 W2101) (Homo sapiens, UniProt P42345+P62942); details: cited from earlier work
FRB-KLW = FRB-KLW (Homo sapiens, UniProt P42345+P62942, T2098L); details: cited from earlier work

S-o,p-dimethoxyphenyl (DMOP)-rapamycin
EC50 [1]: ~1000 nM
EC50 (FRB-KLW): ~5 nM
